This test deals with mouse A2AAR (Mus musculus, UniProt Q60613). The experiment in a line: Radioligand binding, recombinant mouse A2AAR in HEK-293 membranes. Conditions: read-out: Ki, mouse A2AAR; current results, ±SEM.

Sequences of proteins named here, by UniProt entry; tags and fusion partners are left off.
UniProt Q60613, whole entry: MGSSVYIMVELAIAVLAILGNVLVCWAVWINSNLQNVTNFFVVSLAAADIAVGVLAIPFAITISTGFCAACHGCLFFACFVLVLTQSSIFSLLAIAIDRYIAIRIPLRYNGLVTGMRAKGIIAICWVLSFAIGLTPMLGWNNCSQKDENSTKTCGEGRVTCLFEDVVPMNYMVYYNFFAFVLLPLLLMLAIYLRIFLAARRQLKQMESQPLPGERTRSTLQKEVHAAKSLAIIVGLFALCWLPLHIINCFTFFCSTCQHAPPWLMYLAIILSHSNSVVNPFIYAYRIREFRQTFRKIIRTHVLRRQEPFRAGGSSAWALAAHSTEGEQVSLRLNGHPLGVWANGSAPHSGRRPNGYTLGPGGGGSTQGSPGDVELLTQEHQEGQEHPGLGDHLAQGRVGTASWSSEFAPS

One compound from PMC5183552 (Neuropharmacology, 2016) can be followed below.

As usually defined, the Ki is a dissociation constant, usually derived from enzyme kinetics or from competition with a known ligand. In the case of `O[C@@H]1[C@H](O)[C@@H](CCl)O[C@H]1n1cnc2c(NC3CC4CCC3C4)ncnc21` (mixture of isomers) [Cl-ENBA, (±)-5'-chloro-5'-deoxy-N^6-endo-norbornyladenosine], the inhibition constant (Ki) was found to be 3.98 ± 0.358 µM.
